Test results reported in ChEMBL document CHEMBL1208732, “Addressing PXR liabilities of phthalazine-based hedgehog/smoothened antagonists using novel pyridopyridazines” (Bioorg Med Chem Lett, 2010).

Amino acid sequences for entries named in this document (tags omitted).
UniProt Q99835, whole entry: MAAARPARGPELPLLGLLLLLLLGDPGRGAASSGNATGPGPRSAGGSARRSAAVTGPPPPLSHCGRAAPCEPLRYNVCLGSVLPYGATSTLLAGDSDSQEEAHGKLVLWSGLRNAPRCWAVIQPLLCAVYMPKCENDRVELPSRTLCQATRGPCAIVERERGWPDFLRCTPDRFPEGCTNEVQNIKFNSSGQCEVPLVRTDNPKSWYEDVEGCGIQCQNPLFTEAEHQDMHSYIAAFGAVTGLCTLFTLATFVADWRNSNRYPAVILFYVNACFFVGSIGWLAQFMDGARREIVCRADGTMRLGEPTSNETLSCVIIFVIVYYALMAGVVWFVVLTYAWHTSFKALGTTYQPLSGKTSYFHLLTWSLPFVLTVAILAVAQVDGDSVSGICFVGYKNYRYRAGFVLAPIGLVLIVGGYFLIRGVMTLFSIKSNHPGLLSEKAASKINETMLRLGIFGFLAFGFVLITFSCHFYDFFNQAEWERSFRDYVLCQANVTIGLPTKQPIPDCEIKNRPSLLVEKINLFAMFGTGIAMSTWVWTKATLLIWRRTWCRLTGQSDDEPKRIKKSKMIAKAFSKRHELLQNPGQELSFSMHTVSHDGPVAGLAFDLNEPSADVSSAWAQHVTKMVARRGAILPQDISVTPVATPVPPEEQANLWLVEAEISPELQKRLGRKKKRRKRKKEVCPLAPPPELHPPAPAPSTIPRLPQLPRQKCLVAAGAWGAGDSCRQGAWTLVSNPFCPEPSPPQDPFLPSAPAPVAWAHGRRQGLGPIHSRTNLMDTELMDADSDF

Molecular target: Protein smoothened (Homo sapiens, UniProt Q99835)
Test: Antagonist activity at human Smo receptor in HEPM cells assessed as inhibition of Gli expression after 24 hrs by quantigene assay
Type: functional, cell-based
How it was run: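 HEPM cells incubated with compound in MEM with 0.5% charcoal-dextran treated FBS and […] myristoylated mouse Shh protein. GLI expression measured 24 h after adding compound and Shh, using a Quantigene assay.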

C[C@@H]1CN(C(=O)c2ccccc2)CCN1c1nnc(-c2ccc(N(C)C)cc2)c2ccccc12
IC50: 5.3 nM

C[C@H]1CN(C(=O)c2ccccc2)CCN1c1nnc(-c2ccccc2)c2ccccc12
IC50: 5.3 nM
